Active and inactive are the calls of the source.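 How the source made its calls: active means chemicals shown by follow-up kinetic tests to compete for rat estrogen receptor sites, with a measured inhibition constant; inconclusive means some binding seen but constant unmeasurable owing to poor solubility; inactive means no binding up to top dose, or binding unconfirmed.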

Amino acid sequences for entries named in this document (tags omitted).
UniProt P06211, whole entry, looked up: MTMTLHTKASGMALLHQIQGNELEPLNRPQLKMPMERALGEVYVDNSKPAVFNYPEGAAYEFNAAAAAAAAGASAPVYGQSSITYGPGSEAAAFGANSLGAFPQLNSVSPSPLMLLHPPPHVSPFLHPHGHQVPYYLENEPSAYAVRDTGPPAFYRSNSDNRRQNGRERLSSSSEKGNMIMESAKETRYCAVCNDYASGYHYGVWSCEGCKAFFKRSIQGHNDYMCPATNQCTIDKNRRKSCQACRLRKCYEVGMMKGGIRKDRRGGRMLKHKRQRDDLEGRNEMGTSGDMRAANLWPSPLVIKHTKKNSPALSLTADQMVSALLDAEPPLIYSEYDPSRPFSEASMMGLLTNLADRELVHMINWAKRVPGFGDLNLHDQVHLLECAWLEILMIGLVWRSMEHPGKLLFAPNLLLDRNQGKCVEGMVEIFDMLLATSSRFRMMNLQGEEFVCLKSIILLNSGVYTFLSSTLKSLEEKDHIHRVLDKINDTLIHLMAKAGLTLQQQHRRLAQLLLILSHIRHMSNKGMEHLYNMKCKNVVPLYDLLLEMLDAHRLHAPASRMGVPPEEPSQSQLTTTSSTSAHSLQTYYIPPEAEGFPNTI

The data set addresses Estrogen receptor (Rattus norvegicus) (UniProt P06211). As to the kind of experiment: DSSTox (KIERBL) EPA Estrogen Receptor Ki Binding Study (Laws et al.) Database. Particulars: Rat uterine cytosol ER, 3H-estradiol competitive binding. The procedure:
This study was conducted by EPA researchers to evaluate the validity of the rat uterine cytosolic (RUC) estrogen receptor (ER) competitive binding assay for use in the Endocrine Disruption Screening Program (EDSP). The assay measures the ability of radiolabeled 17-beta-estradiol (3H-E2) to bind with RUC ER in the presence of increasing concentrations of a test chemical. The goal is to employ this in vitro assay as a 1st tier screening tool for assessing the potential of structurally diverse environmental chemicals to bind to the ER, as well as to support research efforts to develop computational models to predict ER binding. A distinguishing feature of the present study was the use of secondary experimental analysis of binding curves and determination of Ki values to confirm that measured IC50 values corresponded to true positive results. The study concluded that a number of experimental conditions can confound interpretation of IC50 values obtained from the RUC ER-binding assay data and lead to false positive results. In particular, some chemical treatments likely alter the stability of the assay by changing the buffer pH, denaturing ER, or disrupting the ER binding kinetics. […] The chemicals used in this study were selected as part of a validation test for two Quantitative Structure-Activity Relationship (QSAR) models designed to predict ER binding [Fed. Reg. 67(250), 79618, Dec. 30, 2002]. Several hundred chemicals were initially screened, including approximately 100 chemicals selected from among the High Production Volume (HPV) chemicals included in EPA's Toxic Substances Control Act (TSCA) inventory that were predicted to be positive for ER binding, with the rest selected at random from the TSCA inventory. […] These chemicals were further evaluated in an ER competitive binding assay with secondary analysis to confirm true competitive inhibition and to determine an experimental Ki [U.S. EPA Contract 3D-5967-NTEX]. […]
Take `COP(=S)(Cl)OC`: the outcome was “inactive; none”.
For the compound `ClP(c1ccccc1)c1ccccc1`, the outcome is “inactive; none”.
As for `CCOC(=O)Cl`, the entry is “inactive; none”.

The values are drawn from PubChem BioAssay AID1576 (EPA DSSTox, 2009).
